Results published in patent US5369120A, “Pharmaceutical composition of 7-((substituted)amino-8-((substituted)carbonyl)-(methylamino)-1-oxasp iro(4,5)decanes and L-dopa” (Warner-Lambert Company, priority 1993, dated 1994).

Legend:
[1] = tested on: rats rendered Parkinsonian by injection of reserpine; assay: locomotor activity and rigidity in reserpine-treated Parkinsonian rats; assay type: in vivo, rat; conditions: reserpine (4 mg/kg) rats; Compound I 3.25 μg/kg intraperitoneal, subthreshold dose
[2] = rat paw pressure test for analgesia; conditions: iv
[3] = tested on: kappa opioid; assay: kappa opioid affinity (Ki) and μ/kappa selectivity

CN(C(=O)Cc1cccc2occc12)[C@H]1CC[C@@]2(CCCO2)C[C@@H]1N1CCCC1
Locomotor scores [1]: very low locomotor scores | MPE50 in the rat paw pressure test for analgesia [2]: 0.030 | μ/kappa ratio [3]: 798
